Test results as given in paper PMC2292216 (The Journal of Experimental Medicine, 2008).

Tested on: human platelets
Conditions: pretreatment of platelets with 10 μM aspirin, arachidonic acid stimulation

Compound: CC(=O)Oc1ccccc1C(=O)O [aspirin]
- effect on BLT2 agonistic activity of platelet lipid fractions 7 and 8: completely abolished BLT2 agonistic activity
